The results in this text go back to ChEMBL document CHEMBL2150933, “A novel mithramycin analogue with high antitumor activity and less toxicity generated by combinatorial biosynthesis” (J Med Chem, 2012).

Holding throughout (assay type): organism-based
Series [1] is described as follows: (§1) Toxicity in ip dosed CD1 mouse administered as single dose. The note with it: CD1, mouse, in vivo.
The test system of series [2] is Mus musculus. As to the kind of experiment: Toxicity in iv dosed CD1 mouse administered Q3D for 8 days. The note with it: in vivo, 192 h.
The test system of series [3] is Mus musculus. The description is as §1. The note with it: mouse, in vivo.
The subject of series [4] is Mus musculus. As to the kind of experiment: Toxicity in iv dosed CD1 mouse administered as single dose. The note with it: in vivo.

In series [1], `CO[C@H](C(=O)C(C)=O)[C@@H]1Cc2cc3cc(O[C@H]4C[C@@H](O[C@H]5C[C@@H](O)[C@H](O)[C@@H](C)O5)[C@H](O)[C@@H](C)O4)c(C)c(O)c3c(O)c2C(=O)[C@H]1O[C@H]1C[C@@H](O[C@H]2C[C@@H](O[C@H]3C[C@H](O)[C@H](O)[C@@H](C)O3)[C@H](O)[C@@H](C)O2)[C@H](O)[C@@H](C)O1` showed an MTD of 6.25 mg/kg.
As to `CO[C@H](C(=O)[C@@H](O)[C@@H](C)O)[C@@H]1Cc2cc3cc(O[C@H]4C[C@@H](O[C@H]5C[C@@H](O)[C@H](O)[C@@H](C)O5)[C@H](O)[C@@H](C)O4)c(C)c(O)c3c(O)c2C(=O)[C@H]1O[C@H]1C[C@@H](O[C@H]2C[C@@H](O[C@H]3C[C@](C)(O)[C@H](O)[C@@H](C)O3)[C@@H](O)[C@@H](C)O2)[C@H](O)[C@@H](C)O1` [PLICAMYCIN], the MTD worked out at 1.5 mg/kg with Mus musculus [2], 6.25 mg/kg with Mus musculus [3] and 2 mg/kg in the series on Mus musculus [4].
